Experimental data: paper PMC11510805, “In Vivo Effects of a GHR Synthesis Inhibitor During Prolonged Treatment in Dogs” (Pharmaceuticals, 2024)

Chains of the proteins cited; added tags and fusions are not shown.
UniProt P11712, whole entry: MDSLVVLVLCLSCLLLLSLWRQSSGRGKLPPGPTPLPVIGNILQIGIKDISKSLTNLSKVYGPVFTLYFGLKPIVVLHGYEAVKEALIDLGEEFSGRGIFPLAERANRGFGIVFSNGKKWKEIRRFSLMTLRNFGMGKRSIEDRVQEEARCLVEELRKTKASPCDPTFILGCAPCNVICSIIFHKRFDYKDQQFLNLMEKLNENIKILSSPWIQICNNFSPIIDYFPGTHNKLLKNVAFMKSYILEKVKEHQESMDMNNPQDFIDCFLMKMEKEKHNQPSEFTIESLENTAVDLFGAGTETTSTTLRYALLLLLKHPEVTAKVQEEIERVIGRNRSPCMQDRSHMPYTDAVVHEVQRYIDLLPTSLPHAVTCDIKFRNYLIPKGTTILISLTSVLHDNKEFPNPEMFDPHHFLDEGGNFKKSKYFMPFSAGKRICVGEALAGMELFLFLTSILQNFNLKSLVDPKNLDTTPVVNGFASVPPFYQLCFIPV

Molecular target: CYP2C9 (Homo sapiens, UniProt P11712)
Settings: human liver microsomes

**Q.** With Sulphaphenazole as the substance, how does the “CYP2C9 Imax of reference inhibitor” value read?
**A.** Its value is 98%.

**Q.** And the IC50 (read-out: CYP2C9 IC50)?
**A.** The IC50 was 160 nM.
